Reference: PubChem BioAssay (NCI)
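Interpolation was linear, between the two tested concentrations surrounding the appropriate level; five concentrations were tested over 48 hours in 96-well plates. Abbreviation: GI50, concentration required for 50% inhibition of growth. The concentration for full growth arrest is given as TGI.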

Experiments:
Assay in all cases: inhibition of tumour cell growth, NCI panel, 48 h
NCI-H322M lung = system: NCI-H322M lung
U251 CNS = system: U251 CNS
MCF7 breast = system: MCF7 breast
HCT-15 colon = system: HCT-15 colon
MDA-N = system: MDA-N
HOP-92 NSCLC = system: HOP-92 NSCLC
SK-MEL-2 melanoma = system: SK-MEL-2 melanoma
SR leukemia = system: SR leukemia
MALME-3M melanoma = system: MALME-3M melanoma
CCRF-CEM leukemia = system: CCRF-CEM leukemia
SNB-75 CNS = system: SNB-75 CNS
HOP-62 NSCLC = system: HOP-62 NSCLC
EKVX NSCLC = system: EKVX NSCLC
SF-539 CNS = system: SF-539 CNS
NCI-H522 lung = system: NCI-H522 lung
DU-145 prostate = system: DU-145 prostate
KM12 colon = system: KM12 colon
HCC-2998 colon = system: HCC-2998 colon
M14 melanoma = system: M14 melanoma
SK-MEL-28 melanoma = system: SK-MEL-28 melanoma
HCT-116 colon = system: HCT-116 colon
SW-620 colon = system: SW-620 colon
UO-31 renal = system: UO-31 renal
BT-549 breast = system: BT-549 breast
MDA-MB-435 = system: MDA-MB-435
RXF 393 renal = system: RXF 393 renal
OVCAR-8 ovarian = system: OVCAR-8 ovarian
786-0 renal = system: 786-0 renal
IGROV1 ovarian = system: IGROV1 ovarian
OVCAR-3 ovarian = system: OVCAR-3 ovarian
A549 NSCLC = system: A549 NSCLC
HS 578T breast = system: HS 578T breast
NCI-H226 lung = system: NCI-H226 lung
COLO 205 colon = system: COLO 205 colon
RPMI-8226 leukemia = system: RPMI-8226 leukemia
T-47D breast = system: T-47D breast
OVCAR-4 ovarian = system: OVCAR-4 ovarian
HT29 colon = system: HT29 colon
CAKI-1 renal = system: CAKI-1 renal
PC-3 prostate = system: PC-3 prostate
SK-OV-3 ovarian = system: SK-OV-3 ovarian
SK-MEL-5 melanoma = system: SK-MEL-5 melanoma
SF-268 CNS = system: SF-268 CNS
UACC-62 melanoma = system: UACC-62 melanoma
ACHN renal = system: ACHN renal
MDA-MB-231 breast = system: MDA-MB-231 breast
SN12C renal = system: SN12C renal
UACC-257 melanoma = system: UACC-257 melanoma
NCI-H23 lung = system: NCI-H23 lung
K-562 leukemia = system: K-562 leukemia
NCI/ADR-RES ovarian = system: NCI/ADR-RES ovarian
MOLT-4 leukemia = system: MOLT-4 leukemia
SF-295 CNS = system: SF-295 CNS
HL-60(TB) leukemia = system: HL-60(TB) leukemia
OVCAR-5 ovarian = system: OVCAR-5 ovarian

O=C(OC1CN2CCC1CC2)C1(c2ccccc2)COc2ccccc21 (stereo not given)
GI50 (NCI-H322M lung): 37.5 µM
TGI (NCI-H322M lung): > 100 µM
GI50 (U251 CNS): 19.1 µM
TGI (U251 CNS): 49.1 µM
GI50 (MCF7 breast): 15.9 µM
TGI (MCF7 breast): 29.9 µM
GI50 (HCT-15 colon): 23.7 µM
TGI (HCT-15 colon): 79.6 µM
GI50 (MDA-N): 21.5 µM
TGI (MDA-N): 74.2 µM
GI50 (HOP-92 NSCLC): 14.4 µM
TGI (HOP-92 NSCLC): 54.7 µM
GI50 (SK-MEL-2 melanoma): 16.5 µM
TGI (SK-MEL-2 melanoma): 32.6 µM
GI50 (SR leukemia): 17.8 µM
TGI (SR leukemia): 42 µM
GI50 (MALME-3M melanoma): 16.8 µM
TGI (MALME-3M melanoma): 31.5 µM
GI50 (CCRF-CEM leukemia): 19 µM
TGI (CCRF-CEM leukemia): 55.7 µM
GI50 (SNB-75 CNS): 19.3 µM
TGI (SNB-75 CNS): 59.9 µM
GI50 (HOP-62 NSCLC): 17.4 µM
TGI (HOP-62 NSCLC): 32.4 µM
GI50 (EKVX NSCLC): 50.4 µM
TGI (EKVX NSCLC): > 100 µM
GI50 (SF-539 CNS): 11.6 µM
TGI (SF-539 CNS): 24 µM
GI50 (NCI-H522 lung): 19.9 µM
TGI (NCI-H522 lung): 38.4 µM
GI50 (DU-145 prostate): 66.4 µM
TGI (DU-145 prostate): > 100 µM
GI50 (KM12 colon): 23.4 µM
TGI (KM12 colon): 53.5 µM
GI50 (HCC-2998 colon): 14.8 µM
TGI (HCC-2998 colon): 28 µM
GI50 (M14 melanoma): 15.2 µM
TGI (M14 melanoma): 28.8 µM
GI50 (SK-MEL-28 melanoma): 18.9 µM
TGI (SK-MEL-28 melanoma): 33.7 µM
GI50 (HCT-116 colon): 19.5 µM
TGI (HCT-116 colon): 46.3 µM
GI50 (SW-620 colon): 15.1 µM
TGI (SW-620 colon): 29.2 µM
GI50 (UO-31 renal): 18.8 µM
TGI (UO-31 renal): 75.9 µM
GI50 (BT-549 breast): 19.3 µM
TGI (BT-549 breast): 59.2 µM
GI50 (MDA-MB-435): 20 µM
TGI (MDA-MB-435): 49.6 µM
GI50 (RXF 393 renal): 13.5 µM
TGI (RXF 393 renal): 80.5 µM
GI50 (OVCAR-8 ovarian): 35.1 µM
TGI (OVCAR-8 ovarian): > 100 µM
GI50 (786-0 renal): 24.2 µM
TGI (786-0 renal): > 100 µM
GI50 (IGROV1 ovarian): 30.4 µM
TGI (IGROV1 ovarian): > 100 µM
GI50 (OVCAR-3 ovarian): 26.7 µM
TGI (OVCAR-3 ovarian): > 100 µM
GI50 (A549 NSCLC): 39 µM
TGI (A549 NSCLC): > 100 µM
GI50 (HS 578T breast): 16.7 µM
TGI (HS 578T breast): 41 µM
GI50 (NCI-H226 lung): 16.3 µM
TGI (NCI-H226 lung): 39.8 µM
GI50 (COLO 205 colon): 14.7 µM
TGI (COLO 205 colon): 27.8 µM
GI50 (RPMI-8226 leukemia): 23.6 µM
TGI (RPMI-8226 leukemia): 52.5 µM
GI50 (T-47D breast): 15.3 µM
TGI (T-47D breast): 36.3 µM
GI50 (OVCAR-4 ovarian): 31.1 µM
TGI (OVCAR-4 ovarian): > 100 µM
GI50 (HT29 colon): 16.2 µM
TGI (HT29 colon): 34.7 µM
GI50 (CAKI-1 renal): 21.5 µM
TGI (CAKI-1 renal): 72.2 µM
GI50 (PC-3 prostate): 24 µM
TGI (PC-3 prostate): > 100 µM
GI50 (SK-OV-3 ovarian): 48.2 µM
TGI (SK-OV-3 ovarian): > 100 µM
GI50 (SK-MEL-5 melanoma): 16.3 µM
TGI (SK-MEL-5 melanoma): 29.8 µM
GI50 (SF-268 CNS): 34.7 µM
TGI (SF-268 CNS): 77.2 µM
GI50 (UACC-62 melanoma): 18.9 µM
TGI (UACC-62 melanoma): 36 µM
GI50 (ACHN renal): 18.9 µM
TGI (ACHN renal): 41.1 µM
GI50 (MDA-MB-231 breast): 15 µM
TGI (MDA-MB-231 breast): 36.8 µM
GI50 (SN12C renal): 31.4 µM
TGI (SN12C renal): > 100 µM
GI50 (UACC-257 melanoma): 16.9 µM
TGI (UACC-257 melanoma): 31 µM
GI50 (NCI-H23 lung): 41.6 µM
TGI (NCI-H23 lung): > 100 µM
GI50 (K-562 leukemia): 17.4 µM
TGI (K-562 leukemia): 37.3 µM
GI50 (NCI/ADR-RES ovarian): 27.4 µM
TGI (NCI/ADR-RES ovarian): > 100 µM
GI50 (MOLT-4 leukemia): 17.6 µM
TGI (MOLT-4 leukemia): 46.2 µM
GI50 (SF-295 CNS): 16.9 µM
TGI (SF-295 CNS): 32 µM
GI50 (HL-60(TB) leukemia): 16.6 µM
TGI (HL-60(TB) leukemia): 33.8 µM
GI50 (OVCAR-5 ovarian): 17.2 µM
TGI (OVCAR-5 ovarian): 40 µM
